This note sets out measurements from PMC11639629, “Synthesis and Biological Evaluation of Deoxycyclophellitols as Human Retaining β‐Glucosidase Inhibitors” (Chemistry (Weinheim an Der Bergstrasse, Germany), 2024).

The experiment concerns GBA1, GBA2 and GBA3. The class given is binding, human.

Consider `CN1/C(=C/C=C/C=C/C2=[N+](CCCCCC(=O)NCc3cn(CCCCCCCCN4[C@@H]5[C@H](CO)C[C@H](O)C[C@@H]54)nn3)c3ccccc3C2(C)C)C(C)(C)c2ccccc21` (stereo partly shown) [Compound 5], for which the “selectivity in cABPP with 2 (300 nM)” value is given as “selectivity of 5 for GBA2/3 over GBA1”.
